Data published in EP4843994A1, “NOVEL PEPTIDE HAVING MUSCLE FORMATION-PROMOTING ACTIVITY, ANTI-OBESITY ACTIVITY AND ANTI-DIABETIC ACTIVITY AND USES THEREOF” (dated 2026).

Assays:
3T3-L1 cells = experiment: Expression of adipogenesis-related genes in adipocytes (RT-PCR); conditions: 3T3-L1 cells differentiated into adipocytes, peptide 5 µM, 50 µM, 48 hours
Protocol: 3T3-L1 cells (preadipocytes, American Type Culture Collection) were cultured in DMEM medium containing 2% BCS (Bovine Calf Serum) (Welgene, Korea). To differentiate 3T3-L1 cells into adipocytes, cells were seeded into 12-well culture plates at a concentration of 1 x 10^5 cells/well, and when the cells became confluent (Day=2), the medium was replaced once more and cultured for an additional 48 hours. After 48 hours (Day=0), the culture medium was replaced with DMEM medium containing 10% FBS, 1% P/S, 1 µg/ml insulin (Sigma, USA), 0.5 mM isobutylmethylxanthine (IBMX) (Sigma, USA), and 1 µM Dexamethasone (Sigma, USA), and cultured. After 2 days (Day=2), the medium was replaced with DMEM medium containing 10% FBS, 1% P/S, and 1 µg/ml insulin, and cultured. After 3 days (Day=5), the medium was replaced with one containing only 10% FBS and 1% P/S, treated with peptides (5 µM, 50 µM), and cultured for 48 hours. After culture, cells were harvested and RNA was extracted using Trizol (Thermo Fisher Scientific, USA). DNA complementary to the extracted RNA was synthesized using TOPScript™ RT DryMIX (enzynomics, Korea), and then polymerase chain reaction (PCR) was performed on genes of adipogenesis-related markers using TOPsimple™ DryMIX-nTaq (enzynomics, Korea). Subsequently, the reaction products were run on a 1.5% agarose gel to compare the mRNA expression levels of the markers for each sample. […]

HepG2 cells = experiment: Immunofluorescence analysis of adipogenesis and lipolysis markers in hepatocytes; conditions: 350 µM oleic acid, peptide 5 µM, 50 µM, 48 hours
Protocol: HepG2 cells (human-derived hepatocytes) were cultured in DMEM medium containing 1% P/S and 10% FBS. When cell confluency reached approximately 70 to 80%, cells were seeded into 6-well culture plates at a concentration of 3 x 10^5 cells/2 ml. Subsequently, when cell confluency in a 6-well culture plate reached approximately 70 to 80%, the medium was replaced with serum-free DMEM. After 4 hours, lipid accumulation was induced by replacing the medium with serum-free DMEM (1% BSA) supplemented with 350 µM oleic acid (Sigma, St. Louis, MO, USA). After inducing lipid accumulation for 24 hours, the cells were replaced with serum-free DMEM (1% BSA) supplemented with 350 µM oleic acid (Sigma, St. Louis, MO, USA) and peptides (5 µM, 50 µM), and cultured for 48 hours. After culture, the cells were fixed with 4% paraformaldehyde (PFA) for 10 minutes at room temperature (RT) and permeated with 0.1% Triton X-100 for 5 minutes. Subsequently, the cells were blocked with PBS, 10% FBS, and 0.1% Triton X-100 for 1 hour at room temperature, then treated with the primary antibody and incubated at room temperature for 1 hour. The primary antibodies used are as follows: anti-FAS antibody (Cell signaling Technology, USA); anti-SREBP1 antibody (Abcam, UK); anti-pACC antibody (Cell signaling Technology, USA); anti-pHSL antibody (Cell signaling Technology, USA); anti-pATGL antibody (Cell signaling Technology, USA); anti-PLIN antibody (Affinity biosciences, USA). After incubation, the cells were washed three times and incubated with a secondary antibody (goat anti-Rabbit IgG H&L, Abcam, USA) at room temperature for 30 minutes. The samples were washed three times, and the nuclei were counterstained with DAPI (Santa Cruz, USA). Images were acquired using a LEICA fluorescence microscope (TCS SP8, LEICA, Germany).

C[C@@H](O)[C@H](NC(=O)CNC(=O)[C@@H](N)Cc1c[nH]cn1)C(=O)N[C@@H](Cc1ccc(O)cc1)C(=O)O
expression of ACCα (gene) (3T3-L1 cells): reduced | expression of PPAR-γ (gene) (3T3-L1 cells): reduced | ATG expression level (HepG2 cells): increased again in a concentration-dependent manner | FAS expression level (HepG2 cells): decreased again in a concentration-dependent manner | expression level of PLIN (HepG2 cells): increased again in a concentration-dependent manner | expression level of SREBP1 (HepG2 cells): decreased again in a concentration-dependent manner | expression level of pACC (HepG2 cells): increased again in a concentration-dependent manner | pHSL expression level (HepG2 cells): increased again in a concentration-dependent manner
